# Reference: PMC12486301 (The Journal of pharmacology and experimental therapeutics, 2025)
# Protein sequences, listed by entry. Tags and fused reporters are not part of them. Lines headed by an entry give the natural chain unless they say otherwise; changes in a name come on top.
# UniProt Q14542: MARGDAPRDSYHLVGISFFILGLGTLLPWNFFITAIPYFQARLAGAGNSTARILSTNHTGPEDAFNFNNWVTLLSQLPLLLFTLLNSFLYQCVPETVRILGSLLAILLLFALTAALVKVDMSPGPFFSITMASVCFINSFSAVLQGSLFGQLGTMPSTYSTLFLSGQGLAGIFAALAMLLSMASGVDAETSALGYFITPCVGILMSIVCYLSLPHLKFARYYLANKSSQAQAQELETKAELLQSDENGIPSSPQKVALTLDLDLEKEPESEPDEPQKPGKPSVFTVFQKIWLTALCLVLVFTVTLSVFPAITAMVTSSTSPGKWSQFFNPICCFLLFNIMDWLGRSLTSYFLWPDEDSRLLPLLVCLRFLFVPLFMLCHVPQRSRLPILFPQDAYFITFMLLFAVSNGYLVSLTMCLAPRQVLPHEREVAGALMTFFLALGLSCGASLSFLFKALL
# Tests used:
# [1] = test system: HeLa FlpIn ENT2 cell line; settings: 5 mM unlabeled uridine, 2 minutes
# [2] = target: ENT2 (Homo sapiens, UniProt Q14542); settings: 5 min uptake, pH 7.4
smiles,measurement,setting,value
O=c1ccn([C@@H]2O[C@H](CO)[C@@H](O)[C@H]2O)c(=O)[nH]1 [uridine],total [3H]uridine uptake reduced,[1],~ 80%
same,"Jmax, maximal rate of uridine transport",[2],37.9 ± 7.9 pmol·cm^−2·min^−1
